Laboratory results published in ChEMBL document CHEMBL1135602 (J Med Chem, 2002).

Sequences of proteins named here, by UniProt entry; tags and fusion partners are left off. A change or cut given only in a name is not applied to a line headed by its entry.
UniProt P13922: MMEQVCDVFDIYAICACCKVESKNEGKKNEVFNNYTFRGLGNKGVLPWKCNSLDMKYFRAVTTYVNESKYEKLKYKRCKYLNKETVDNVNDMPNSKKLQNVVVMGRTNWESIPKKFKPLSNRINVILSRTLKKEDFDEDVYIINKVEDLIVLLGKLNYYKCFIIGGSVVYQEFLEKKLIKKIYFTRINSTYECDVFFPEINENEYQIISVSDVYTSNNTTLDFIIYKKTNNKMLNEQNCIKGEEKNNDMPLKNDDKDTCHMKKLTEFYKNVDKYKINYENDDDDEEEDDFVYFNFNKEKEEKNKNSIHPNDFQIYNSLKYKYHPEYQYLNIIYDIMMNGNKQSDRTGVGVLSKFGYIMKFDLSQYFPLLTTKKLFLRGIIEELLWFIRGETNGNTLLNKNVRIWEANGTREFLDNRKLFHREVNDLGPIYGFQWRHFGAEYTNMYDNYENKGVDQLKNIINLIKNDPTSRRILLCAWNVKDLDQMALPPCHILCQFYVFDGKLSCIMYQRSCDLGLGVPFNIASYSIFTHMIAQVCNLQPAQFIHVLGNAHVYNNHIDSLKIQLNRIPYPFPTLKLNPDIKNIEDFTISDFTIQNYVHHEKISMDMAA

How the values were obtained:
[1] = target: Bifunctional dihydrofolate reductase-thymidylate synthase (Plasmodium falciparum K1) (UniProt P13922); test: Inhibition of Plasmodium falciparum wild-type dihydrofolate reductase (DHFR) relative to Pyrimethamine.
Plasmodium falciparum = test: IC50 ratio against Plasmodium falciparum K1CB1/TM4; type: functional

SMILES: CCc1nc(N)nc(N)c1-c1ccc(OCc2ccc(Cl)cc2Cl)c(OC)c1
- Relative activity [1]: 1.7
- Ratio (Plasmodium falciparum): >14
